# Columns and labels:
# Protein sequences, listed by entry. Tags and fused reporters are not part of them. Residues count along the entry.
# UniProt P23458, 850-1154: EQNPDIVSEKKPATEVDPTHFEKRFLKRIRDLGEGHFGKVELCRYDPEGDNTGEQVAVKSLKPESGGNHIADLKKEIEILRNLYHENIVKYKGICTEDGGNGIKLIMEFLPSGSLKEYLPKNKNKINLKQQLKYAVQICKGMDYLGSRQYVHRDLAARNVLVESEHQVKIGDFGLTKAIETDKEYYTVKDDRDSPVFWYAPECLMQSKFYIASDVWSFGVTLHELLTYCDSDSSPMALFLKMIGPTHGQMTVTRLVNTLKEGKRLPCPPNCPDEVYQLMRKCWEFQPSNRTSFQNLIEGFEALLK
# [1] = molecular target: Recombinant human JAK1 catalytic domain (Homo sapiens (Human), UniProt P23458); assay: JAK1 inhibition assay; type: biochemical; conditions: semi-quantitative score
# [2] = tested on: JAK-STAT signalling in HeLa cells; assay: JAK-STAT signalling assay (OSM-triggered pSTAT1(2)-luciferase reporter in HeLa cells); type: cell-based; conditions: Homo sapiens, read-out: STAT signalling EC50
IC50 [1] [nM],Structure (SMILES),EC50 [2] [nM]
< 100,"O=C(Nc1nc2cccc(-c3ccc(CN4CCOCC4)cc3)n2n1)C1CC1 [Compound 18, N-(5-(4-(morpholinomethyl)phenyl)-[1,2,4]triazolo[1,5-a]pyridin-2-yl)cyclopropanecarboxamide]",
,"NC(=O)c1cccc(NCc2ccc(-c3cccc4nc(NC(=O)C5CC5)nn34)cc2)c1 [Compound 228, 3-{4-[2-(Cyclopropanecarbonyl-amino)-[1,2,4]triazolo[1,5-a]pyridin-5-yl]-benzylamino}-benzamide]",501 to 1000
,"O=C(Nc1nc2cccc(-c3ccc(NS(=O)(=O)C4CC4)cc3)n2n1)C1CC1 [Compound 59, N-(5-(4-(cyclopropanesulfonamido)phenyl)-[1,2,4]triazolo[1,5-a]pyridin-2-yl)cyclopropanecarboxamide]",> 1000

# Reference: US10206907B2, “Compounds useful for the treatment of degenerative and inflammatory diseases” (GALAPAGOS NV, priority 2008, dated 2019)
